Assay [1] concerns the target DR4Dw14 HLA-DR molecules. Briefly: HLA-DR peptide binding assay (competition with biotinylated marker peptide), DR4Dw14. On the set-up: species or system human. As to conditions: pH = 5, 50 nM biotin-spacer-IHA(307-319)F marker peptide.
The target in assay [2] is T1, DR4Dw4 (DRB1*0401) HLA-DR molecules (Homo sapiens, UniProt P01903+P01911, A100K/A169T/F76Y/I96L/K127E/L162R/M171V/N62H/P40V/Q125Y/R42H/S133A/S149N/S66Y/V115G/V209L/W38E).
T1 construct: endogenous in cells; host or cells: BSM, EBV-transformed B-cell line
Briefly: HLA-DR peptide binding assay (competition with biotinylated marker peptide), DR4Dw4. Conditions: pH = 5, 50 nM biotin-spacer-IHA(307-319)F marker peptide; DOT Blot, densitometer; read-out: ^R IC50, DR4Dw4, DOT Blot.

For assay [3], the system named is PBMC from RA patients. Briefly: Proliferative responses of PBMC from RA patients (3H-thymidine). It counts as cell-based, human. Conditions: 10% autologous serum. How it is done: Peripheral blood mononuclear cells (PBMC) from patients who were diagnosed as suffering from RA according to the American Rheumatism Association (ARA) criteria (Arnett et al., Arthritis Rheum. 31:315, 1988) were collected.
(§1) PBMC obtained from heparinized venous peripheral blood were isolated by standard centrifugation on a Ficoll-Paque gradient. […] Cultures were incubated in a total volume of 210 μl for 7 days at 37° C. in a humidified atmosphere of 5% CO2. Cultures were pulsed during the last 18 hours with 0.25 μCi^3 H-thymidine.

For assay [4], the system named is PBMC from healthy donors. Put plainly: Proliferative responses of PBMC from healthy donors (3H-thymidine). The format is cell-based, human. As to conditions: 10% autologous serum. Here is the method: PBMC's from healthy donors carrying the DR4Dw4 (DRB1*0401) or the DR1 specificity were collected as a control.
as §1

[5] abbreviates: DOT Blot, densitometer, read-out: ^R IC50, DR4Dw14, DOT Blot.

Like-named read-outs stand apart in the source and are kept apart here.

For orientation: IC50 means the concentration that gives 50% inhibition. As for `CC(C)C[C@H](NC(=O)[C@@H](NC(=O)[C@H](Cc1ccccc1)NC(=O)[C@H](CO)NC(=O)[C@H](CCCNC(=N)N)NC(=O)CNC(=O)[C@H](Cc1ccccc1)NC(=O)[C@@H](NC(=O)[C@@H]1CCCN1)[C@@H](C)O)[C@@H](C)O)C(=O)N[C@@H](C)C(=O)N[C@@H](CO)C(=O)N[C@@H](CO)C(=O)N[C@@H](CCC(=O)O)C(=O)O` [Peptide 1], the IC50 was found to be 1950 nM in assay [1] (setting [5]) and 2500 nM in assay [1] (SDS-PAGE, visual inspection, read-out: ^R IC50, DR4Dw14, SDS-PAGE).
`CC[C@H](C)[C@H](NC(=O)[C@H](CCCCN)NC(=O)[C@H](CO)NC(=O)[C@H](Cc1ccccc1)NC(=O)[C@H](CCCNC(=N)N)NC(=O)[C@H](CCC(N)=O)NC(=O)[C@@H](N)CO)C(=O)N[C@@H](C)C(=O)N[C@@H](CO)C(=O)N[C@@H](CC(N)=O)C(=O)N[C@H](C(=O)N[C@@H](CCC(N)=O)C(=O)N[C@@H](CO)C(=O)N[C@@H](CCCNC(=N)N)C(=O)O)[C@@H](C)O` [Peptide 4]: the IC50 was determined as 400 nM in assay [1] (setting [5]) and 80 nM in assay [2]. Besides, the “Proliferative response, stimulation index (SI)” value in assay [3] (RA patient 191-03 (HR), disease state IV, peptide 10 μg/l) is reported as < 2; in assay [3] (RA patient 191-03 (HR), disease state IV, peptide 100 μg/l) it was < 2; in assay [3] (RA patient 272-0 (HR), disease state III-IV, peptide 10 μg/l), < 2; in assay [3] (RA patient 272-0 (HR), disease state III-IV, peptide 100 μg/l) it was 6; in assay [3] (RA patient 273-0 (HR), disease state IV, peptide 10 μg/l) it was 3; in assay [3] (RA patient 273-0 (HR), disease state IV, peptide 100 μg/l), 29. Besides, the “Proliferative response, stimulation index (SI)” value in assay [3] (RA patient 275-0 (HR), disease state III, peptide 10 μg/l) is < 2; in assay [3] (RA patient 275-0 (HR), disease state III, peptide 100 μg/l), 5; in assay [3] (RA patient 276-0 (HR), disease state IV, burnt out, peptide 10 μg/l) it was 1; in assay [3] (RA patient 276-0 (HR), disease state IV, burnt out, peptide 100 μg/l) it was < 2; in assay [3] (RA patient 280-0 (HR), disease state IV, burnt out, peptide 10 μg/l), < 2; in assay [3] (RA patient 280-0 (HR), disease state IV, burnt out, peptide 100 μg/l) it was 2. The “Proliferative response, stimulation index (SI)” value in assay [4] (healthy donor 156-03 (NR), peptide 10 μg/ml) is listed as < 1; in assay [4] (healthy donor 156-03 (NR), peptide 100 μg/ml), < 2; in assay [4] (healthy donor 157-04 (R), peptide 10 μg/ml), 1; in assay [4] (healthy donor 157-04 (R), peptide 100 μg/ml), 1; in assay [4] (healthy donor 168-03 (NR), peptide 10 μg/ml), 1; in assay [4] (healthy donor 168-03 (NR), peptide 100 μg/ml) it was < 1. The “Proliferative response, stimulation index (SI)” value in assay [4] (healthy donor 237-01 (NR), peptide 10 μg/ml) was < 1; in assay [4] (healthy donor 237-01 (NR), peptide 100 μg/ml), < 1; in assay [4] (healthy donor 238-01 (NR), second line so labelled, peptide 10 μg/ml), 1; in assay [4] (healthy donor 238-01 (NR), second line so labelled, peptide 100 μg/ml), < 1; in assay [4] (healthy donor 241-01 (R), peptide 10 μg/ml), < 1; in assay [4] (healthy donor 241-01 (R), peptide 100 μg/ml) it was < 1.
